Patent US12383553B2, “Method for detecting or treating triple negative breast cancer” (Children's Medical Center Corporation, priority 2014, dated 2025)

What was measured:
[1] = test system: TNBC cells (MDA-MB-231, MDA-MB-436, MDA-MB-157); assay: In vitro nanoparticle binding of FITC-labeled probes by flow cytometry; assay type: cell-based, human
Procedure: FTIC conjugated ICAM-IOs, or IGG-IOs, or HER2-IOs (ICAM-IO-FITC, or IGG-IO-FITC, or HER2-FITC-IO) were prepared to evaluate their in vitro TNBC targeting by flow cytometry. FITC was first conjugated to the casein coated on CNIOs according to FITC manufacturer's protocol. Then obtained FITC-CNIOs were conjugated with IGG, or HER2 antibody or ICAM-1 antibody as described in JCAM-IO synthesis.
Quantitative analysis of ICAM-IO-FITC binding to TNBCs (MDA-MB-231, MDA-MB-436, MDA-MB-157) were conducted using flow cytometry. Non-TNBCs (MCF7, HCC1500, MDA-MB-361, and SKBR3) and non-neoplastic cells (AG11132 and MCF10A) were selected as controls. Cells were seeded in 6-well plates (3×10^5 cells/well) and allowed to adhere overnight. Then cells were incubated for 4 h at 37° C. with (1) IGG- IO-FITC, (2) HER2-IO-FITC, and (3) ICAM-1-IO-FITC. The nanoparticle concentration used was 100 μg/mL. All nanoparticle treated cells were washed with PBS, harvested using a 0.25% trypsin/2.6 mM EDTA solution, and washed with PBS (pH 7.4) three times. Binding data were acquired using a BD FACSCalibur flow cytometer and analyzed using FlowJo software. The increase binding value was calculated by dividing the mean fluorescence intensity of HER2-1-FITC, or ICAM-1-IO-FITC stained cells by that of the non-specific IGG-IO-FITC stained cells.

MDA-MB-231 TNBC tumor [2] = assay: In vivo MRI of xenograft TNBC mouse model; parameters: species or system nude mice; settings: 24 h after intravenous administration, 20 mg Fe/kg, T2-weighted MRI, MDA-MB-231 xenograft
Procedure: The ability of ICAM-IOs for targeted imaging of T NBC tumors in vivo were examined by MR imaging using a xenograft TNBC mouse model. MDA-MB-231 cells were subcutaneously implanted in immunodeficient nude mice. MRI was performed on three groups of tumor bearing mice intravenously injected with IGG-IO, HER2-IO, or ICAM-IO when tumors reached 1 cm^3 in volume. Each group was scanned at pre-injection and 24 h and 48 h post-injection with a set of MRI sequences, including T1, T2-weighted spin echo imaging, and T2 relaxometry. T2 weighted MR images presented in FIG. 4A show decreased signals in the regions of the tumor as the result of enhanced T2 contrast from uptake of IO probes in tumors.
Subcutaneous breast tumors were established by injecting 5×10^6 MDA-MB-231 cells into the fourth mammary fat pad of Nude mice (Charles River, Wilmington, MA) with n=5 for each group. Tumors were well developed for 5-7 weeks until the tumors were at least 200 mm3 in volume. In vivo MRI was performed on the tumor-bearing mice in three groups, which injected intravenously with IGG-IO, HER2-IO and ICAM-IO (at the dosage of 20 mg Fe/kg mouse weight), respectively. […] The pixel intensity was calculated and normalized to the area of ROIs by ImageJ software. […]

MDA-MB-231 TNBC tumor [3] = assay: Biodistribution and tumor iron accumulation (phenanthroline colorimetric method) and tumor histology; assay type: in vivo, nude mice; settings: TNBC tumor sections from treated mice
Procedure: The biodistribution and tumor accumulation of MRI probes were evaluated. […] Correlating with the in vivo MRI results, the iron accumulation of ICAM-IOs in TNBC tumors was 3.7- and 2.1-fold higher than that of IGG-IOs and HER2-IOs with reference to untreated tumors, respectively (FIG. 4C inset). To further confirm the targeting of ICAM-IOs to the tumor, the in vivo MRI results were corroborated with histology. TNBC tumor sections were stained with ICAM-1 antibody, HER2 antibody, hematoxylin and eosin (H&E), and Prussian blue. […] In contrast, Prussian blue staining was low in tumors receiving IGG-IOs or HER2-IOs.
Subcutaneous breast tumors were established by injecting 5×10^6 MDA-MB-231 cells into the fourth mammary fat pad of Nude mice (Charles River, Wilmington, MA) with n=5 for each group. […] Images were obtained at pre- and 24 h post-injection using a 3 T MRI scanner (Siemens Healthcare (Malvern, PA, USA) with fast spin echo and multi-TE sequence for T2-weighted MRI. The imaging parameters included: TR of 3200 ms, TE of 86 ms, matrix of 320×128, field of view (FOV) of 120×60 mm2, flip angle of 150°, and slice thickness of 1.00 mm for T2-weighted imaging; TR of 3710 ms and 20 different TEs, starting at 12 ms with increments of 12 ms for multi-TE imaging. To quantity the signal intensity for tumor, ROIs were drawn around the whole tumor at the same slice with the same imaging depth. […]

HER2-IOs: casein coated iron oxide nanoparticles conjugated with Herceptin (humanized anti-HER2 antibody), control
targeting of TNBC cells [1]: failed to target TNBCs
MRI signal drop in tumor (MDA-MB-231 TNBC tumor [2]): 17%
Prussian blue staining of IOs in tumor sections (MDA-MB-231 TNBC tumor [3]): low
